Reference: ChEMBL document CHEMBL6177999, “Discovery of 3-(Fluoro-imidazolyl)pyridazine Derivatives as Potent STING Agonists with Antitumor Activity” (J Med Chem, 2025)
Calls of active or inactive are those of the source. No cut-off for these calls is given here.

What was measured:
[1] = test system: B16-F10; assay: Antitumor activity against mouse B16-F10 cells allografted in female C57BL/6 mouse assessed as prolongation of animal survival at 30 mg/kg, iv qd; assay type: functional, organism-based
[2] = Acute toxicity in female C57BL/6 mouse assessed as change in liver weight at 10 mg/kg, iv qd treated for 7 days; assay type: organism-based; conditions: in vivo, 168 h, time 7 day
[3] = Acute toxicity in female C57BL/6 mouse assessed as change in lung weight at 10 mg/kg, iv qd treated for 7 days; assay type: organism-based; conditions: in vivo, 168 h, time 7 day
[4] = Acute toxicity in female C57BL/6 mouse assessed as change in heart weight at 10 mg/kg, iv qd treated for 7 days; assay type: organism-based; conditions: in vivo, 168 h, time 7 day
[5] = Acute toxicity in female C57BL/6 mouse assessed as change in body weight at 10 mg/kg, iv qd treated for 7 days; assay type: organism-based; conditions: in vivo, 168 h, time 7 day
[6] = Toxicity in female C57BL/6 mouse allografted with mouse B16-F10 cells assessed as body weight loss at 5 to 10 mg/kg, iv qd; assay type: organism-based; conditions: in vivo, dose 5-10 mg/kg
[7] = Acute toxicity in female C57BL/6 mouse assessed as change in spleen weight at 10 mg/kg, iv qd treated for 7 days; assay type: organism-based; conditions: in vivo, 168 h, time 7 day
[8] = Acute toxicity in female C57BL/6 mouse assessed as change in kidney weight at 10 mg/kg, iv qd treated for 7 days; assay type: organism-based; conditions: in vivo, 168 h, time 7 day
[9] = Toxicity in female C57BL/6 mouse assessed as drug tolerance at 10 mg/kg, iv qd treated for 7 days; assay type: organism-based; conditions: in vivo, 168 h, time 7 day

SMILES | Activity [1] | Activity [2] | Activity [3] | Activity [4] | Activity [5] | Activity [6] | Activity [7] | Activity [8] | Activity [9]
O=C(Nc1cc(F)c(F)cc1C(=O)O)c1ccc(-n2ccnc2)nn1 | Active | – | – | – | – | – | – | – | –
C#Cc1cc(NC(=O)c2ccc(-n3cnc(F)c3)nn2)c(C(=O)[O-])cc1F.[Li+] | – | Non-toxic | Non-toxic | Non-toxic | Non-toxic | Non-toxic | Non-toxic | Non-toxic | Non-toxic
